{"source": "patent US20180092920A1", "about": "“METHOD FOR TREATING TAU PROTEIN-MEDIATED DEGENERATIVE NEURONAL DISEASE” (SEOUL NATIONAL UNIVERSITY R&DB FOUNDATION, priority 2012, published 2018)", "tested_on": "HT22/Tau #1 cells", "conditions": "100 nM, 24 hours; decreased from 42% without inhibitor", "data": [{"smiles": "C[C@@H](Oc1cc(-c2cnn(C3CCNCC3)c2)cnc1N)c1c(Cl)ccc(F)c1Cl", "note": "[PF-2341066]", "values": [{"measurement": "cell death", "result": 15, "unit": "%"}]}]}
